PubChem BioAssay (NCI)
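In this assay, cells in 96-well plates receive the compound at five concentrations for 48 hours. Endpoints are linearly interpolated between the surrounding concentrations. GI50 marks 50% less growth. TGI marks complete inhibition of growth.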

Columns and labels:
Test in all cases: growth of human tumour cells (NCI), 48 h
T-47D breast = system: T-47D breast
NCI-H226 lung = system: NCI-H226 lung
SK-OV-3 ovarian = system: SK-OV-3 ovarian
ACHN renal = system: ACHN renal
HS 578T breast = system: HS 578T breast
CAKI-1 renal = system: CAKI-1 renal
MOLT-4 leukemia = system: MOLT-4 leukemia
SR leukemia = system: SR leukemia
MDA-MB-435 = system: MDA-MB-435
COLO 205 colon = system: COLO 205 colon
OVCAR-8 ovarian = system: OVCAR-8 ovarian
EKVX NSCLC = system: EKVX NSCLC
OVCAR-5 ovarian = system: OVCAR-5 ovarian
KM12 colon = system: KM12 colon
PC-3 prostate = system: PC-3 prostate
OVCAR-4 ovarian = system: OVCAR-4 ovarian
A549 NSCLC = system: A549 NSCLC
UACC-257 melanoma = system: UACC-257 melanoma
MCF7 breast = system: MCF7 breast
NCI-H460 lung = system: NCI-H460 lung
SNB-75 CNS = system: SNB-75 CNS
SF-295 CNS = system: SF-295 CNS
HCT-116 colon = system: HCT-116 colon
SNB-19 CNS = system: SNB-19 CNS
HOP-92 NSCLC = system: HOP-92 NSCLC
SW-620 colon = system: SW-620 colon
DU-145 prostate = system: DU-145 prostate
NCI-H322M lung = system: NCI-H322M lung
TK-10 renal = system: TK-10 renal
NCI/ADR-RES ovarian = system: NCI/ADR-RES ovarian
M14 melanoma = system: M14 melanoma
BT-549 breast = system: BT-549 breast
SF-268 CNS = system: SF-268 CNS
MDA-N = system: MDA-N
NCI-H522 lung = system: NCI-H522 lung
LOX IMVI melanoma = system: LOX IMVI melanoma
NCI-H23 lung = system: NCI-H23 lung
SK-MEL-28 melanoma = system: SK-MEL-28 melanoma
HOP-62 NSCLC = system: HOP-62 NSCLC
RPMI-8226 leukemia = system: RPMI-8226 leukemia
786-0 renal = system: 786-0 renal
K-562 leukemia = system: K-562 leukemia
SK-MEL-2 melanoma = system: SK-MEL-2 melanoma
SK-MEL-5 melanoma = system: SK-MEL-5 melanoma
CCRF-CEM leukemia = system: CCRF-CEM leukemia
UACC-62 melanoma = system: UACC-62 melanoma
HT29 colon = system: HT29 colon
UO-31 renal = system: UO-31 renal
IGROV1 ovarian = system: IGROV1 ovarian
HCT-15 colon = system: HCT-15 colon
MALME-3M melanoma = system: MALME-3M melanoma
U251 CNS = system: U251 CNS
SN12C renal = system: SN12C renal
HL-60(TB) leukemia = system: HL-60(TB) leukemia
OVCAR-3 ovarian = system: OVCAR-3 ovarian

CN1C(C)(C)C(Br)C(=O)C(Br)C1(C)C (stereo not given)
GI50 (T-47D breast): > 100 µM
TGI (T-47D breast): > 100 µM
GI50 (NCI-H226 lung): 19.6 µM
TGI (NCI-H226 lung): 50.8 µM
GI50 (SK-OV-3 ovarian): > 100 µM
TGI (SK-OV-3 ovarian): > 100 µM
GI50 (ACHN renal): > 100 µM
TGI (ACHN renal): > 100 µM
GI50 (HS 578T breast): > 100 µM
TGI (HS 578T breast): > 100 µM
GI50 (CAKI-1 renal): > 100 µM
TGI (CAKI-1 renal): > 100 µM
GI50 (MOLT-4 leukemia): > 100 µM
TGI (MOLT-4 leukemia): > 100 µM
GI50 (SR leukemia): > 100 µM
TGI (SR leukemia): > 100 µM
GI50 (MDA-MB-435): > 100 µM
TGI (MDA-MB-435): > 100 µM
GI50 (COLO 205 colon): > 100 µM
TGI (COLO 205 colon): > 100 µM
GI50 (OVCAR-8 ovarian): > 100 µM
TGI (OVCAR-8 ovarian): > 100 µM
GI50 (EKVX NSCLC): > 100 µM
TGI (EKVX NSCLC): > 100 µM
GI50 (OVCAR-5 ovarian): 31.8 µM
TGI (OVCAR-5 ovarian): 81.4 µM
GI50 (KM12 colon): > 100 µM
TGI (KM12 colon): > 100 µM
GI50 (PC-3 prostate): > 100 µM
TGI (PC-3 prostate): > 100 µM
GI50 (OVCAR-4 ovarian): > 100 µM
TGI (OVCAR-4 ovarian): > 100 µM
GI50 (A549 NSCLC): > 100 µM
TGI (A549 NSCLC): > 100 µM
GI50 (UACC-257 melanoma): > 100 µM
TGI (UACC-257 melanoma): > 100 µM
GI50 (MCF7 breast): 50.1 µM
TGI (MCF7 breast): > 100 µM
GI50 (NCI-H460 lung): > 100 µM
TGI (NCI-H460 lung): > 100 µM
GI50 (SNB-75 CNS): > 100 µM
TGI (SNB-75 CNS): > 100 µM
GI50 (SF-295 CNS): > 100 µM
TGI (SF-295 CNS): > 100 µM
GI50 (HCT-116 colon): > 100 µM
TGI (HCT-116 colon): > 100 µM
GI50 (SNB-19 CNS): > 100 µM
TGI (SNB-19 CNS): > 100 µM
GI50 (HOP-92 NSCLC): > 100 µM
TGI (HOP-92 NSCLC): > 100 µM
GI50 (SW-620 colon): > 100 µM
TGI (SW-620 colon): > 100 µM
GI50 (DU-145 prostate): > 100 µM
TGI (DU-145 prostate): > 100 µM
GI50 (NCI-H322M lung): > 100 µM
TGI (NCI-H322M lung): > 100 µM
GI50 (TK-10 renal): > 100 µM
TGI (TK-10 renal): > 100 µM
GI50 (NCI/ADR-RES ovarian): > 100 µM
TGI (NCI/ADR-RES ovarian): > 100 µM
GI50 (M14 melanoma): > 100 µM
TGI (M14 melanoma): > 100 µM
GI50 (BT-549 breast): > 100 µM
TGI (BT-549 breast): > 100 µM
GI50 (SF-268 CNS): > 100 µM
TGI (SF-268 CNS): > 100 µM
GI50 (MDA-N): > 100 µM
TGI (MDA-N): > 100 µM
GI50 (NCI-H522 lung): > 100 µM
TGI (NCI-H522 lung): > 100 µM
GI50 (LOX IMVI melanoma): > 100 µM
TGI (LOX IMVI melanoma): > 100 µM
GI50 (NCI-H23 lung): > 100 µM
TGI (NCI-H23 lung): > 100 µM
GI50 (SK-MEL-28 melanoma): > 100 µM
TGI (SK-MEL-28 melanoma): > 100 µM
GI50 (HOP-62 NSCLC): > 100 µM
TGI (HOP-62 NSCLC): > 100 µM
GI50 (RPMI-8226 leukemia): > 100 µM
TGI (RPMI-8226 leukemia): > 100 µM
GI50 (786-0 renal): > 100 µM
TGI (786-0 renal): > 100 µM
GI50 (K-562 leukemia): > 100 µM
TGI (K-562 leukemia): > 100 µM
GI50 (SK-MEL-2 melanoma): > 100 µM
TGI (SK-MEL-2 melanoma): > 100 µM
GI50 (SK-MEL-5 melanoma): > 100 µM
TGI (SK-MEL-5 melanoma): > 100 µM
GI50 (CCRF-CEM leukemia): > 100 µM
TGI (CCRF-CEM leukemia): > 100 µM
GI50 (UACC-62 melanoma): > 100 µM
TGI (UACC-62 melanoma): > 100 µM
GI50 (HT29 colon): > 100 µM
TGI (HT29 colon): > 100 µM
GI50 (UO-31 renal): > 100 µM
TGI (UO-31 renal): > 100 µM
GI50 (IGROV1 ovarian): > 100 µM
TGI (IGROV1 ovarian): > 100 µM
GI50 (HCT-15 colon): > 100 µM
TGI (HCT-15 colon): > 100 µM
GI50 (MALME-3M melanoma): > 100 µM
TGI (MALME-3M melanoma): > 100 µM
GI50 (U251 CNS): > 100 µM
TGI (U251 CNS): > 100 µM
GI50 (SN12C renal): > 100 µM
TGI (SN12C renal): > 100 µM
GI50 (HL-60(TB) leukemia): > 100 µM
TGI (HL-60(TB) leukemia): > 100 µM
GI50 (OVCAR-3 ovarian): > 100 µM
TGI (OVCAR-3 ovarian): > 100 µM
